What was measured:
SJSA-1 cells = experiment: Cell viability assay (MTT), SJSA-1; conditions: read-out: SJSA-1 EC50 (72 h)
MDMX = biological target: T1, MDMX (Homo sapiens, UniProt O15151); experiment: Competitive fluorescence polarization assay for MDMX; type: binding; conditions: competitive FP assay; for IC50: read-out: IC50 (MDMX); for Ki: read-out: Ki (MDMX)
T1 sequence (O15151 1-125): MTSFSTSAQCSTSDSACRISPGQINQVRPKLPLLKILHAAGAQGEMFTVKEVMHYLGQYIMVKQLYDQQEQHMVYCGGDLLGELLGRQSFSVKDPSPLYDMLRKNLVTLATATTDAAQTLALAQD

Chains of the proteins cited; added tags and fusions are not shown. Residues count along the entry.
UniProt Q00987, 1-125: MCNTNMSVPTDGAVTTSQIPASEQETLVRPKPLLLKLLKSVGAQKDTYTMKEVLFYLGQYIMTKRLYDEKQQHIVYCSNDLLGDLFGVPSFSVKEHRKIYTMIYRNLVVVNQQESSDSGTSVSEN

MDM2 = MDM2 (Homo sapiens, UniProt Q00987); experiment: Competitive fluorescence polarization assay for MDM2; type: binding; conditions: competitive FP assay
RKO cells = experiment: Cell viability assay (MTT), RKO; conditions: read-out: RKO EC50 (72 h)

IC50 (MDMX) [nM]	Ki (MDMX) [nM]	IC50 (MDM2) [nM]	Ki (MDM2) [nM]	SMILES	EC50 (SJSA-1 cells) [nM]	EC50 (RKO cells) [nM]
				CCCC[C@H](NC(=O)[C@H](C)NC(=O)[C@H](C)NC(=O)[C@]1(C)CCCC=CCCCCCC[C@@](C)(NC(=O)[C@H](Cc2ccccc2)NC(=O)[C@@H](NC(=O)[C@H](CC(C)C)NC(C)=O)[C@@H](C)O)C(=O)N[C@@H](C)C(=O)N[C@@H](Cc2ccc(O)cc2)C(=O)N[C@@H](Cc2c[nH]c3ccccc23)C(=O)N[C@@H](C)C(=O)N[C@@H](CCC(N)=O)C(=O)N[C@@H](CC(C)C)C(=O)N1)C(=O)N[C@H](C)C(N)=O (single isomer, unassigned) [compound 74]	< 5000	
				CC(=O)N[C@@H](CC(C)C)C(=O)N[C@H](C(=O)N[C@@H](Cc1ccccc1)C(=O)N[C@]1(C)CCCCC#CC#CCCC[C@@](C)(C(=O)N[C@@H](C)C(=O)N[C@@H](C)C(=O)N[C@@H](C)C(=O)N[C@@H](C)C(=O)N[C@@H](C)C(=O)N[C@H](C)C(N)=O)NC(=O)[C@H](CC(C)C)NC(=O)[C@H](CCC(N)=O)NC(=O)[C@H](C)NC(=O)[C@H](Cc2c[nH]c3ccccc23)NC(=O)[C@H](Cc2ccc(O)cc2)NC(=O)[C@H](C)NC1=O)[C@@H](C)O [compound 662]	< 5000	
100 to 1000	10 to 100	100 to 1000	10 to 100	CC[C@H](C)[C@H](NC(=O)[C@H](C)NC(=O)[C@H](C)NC(=O)[C@]1(C)CCCC=CCCCCCC[C@@](C)(NC(=O)[C@H](Cc2ccccc2)NC(=O)[C@@H](NC(=O)[C@H](CC(C)C)NC(C)=O)[C@@H](C)O)C(=O)N[C@@H](C)C(=O)N[C@@H](Cc2ccc(O)cc2)C(=O)N[C@@H](Cc2c[nH]c3ccccc23)C(=O)N[C@@H](C)C(=O)N[C@@H](CCC(N)=O)C(=O)N[C@@H](CC(C)C)C(=O)N1)C(=O)N[C@H](CC(C)C)C(N)=O (single isomer, unassigned) [compound 81]		5000 to 15000
100 to 1000	10 to 100	100 to 1000	10 to 100	CSCC[C@H](NC(=O)[C@H](CCC(N)=O)NC(=O)[C@H](CCC(N)=O)NC(=O)[C@]1(C)CCCC=CCCCCCC[C@@](C)(NC(=O)[C@H](Cc2ccccc2)NC(=O)[C@@H](NC(=O)[C@H](CC(C)C)NC(C)=O)[C@@H](C)O)C(=O)N[C@@H](C)C(=O)N[C@@H](Cc2ccc(O)cc2)C(=O)N[C@@H](Cc2c[nH]c3ccccc23)C(=O)N[C@@H](C)C(=O)N[C@@H](CCC(N)=O)C(=O)N[C@@H](CC(C)C)C(=O)N1)C(=O)N[C@H](CC(C)C)C(N)=O (single isomer, unassigned) [compound 47]		
100 to 1000	10 to 100	100 to 1000	10 to 100	CC(=O)N[C@@H](Cc1c[nH]c2ccccc12)C(=O)N[C@H](C(=O)N[C@@H](Cc1ccccc1)C(=O)N[C@]1(C)CCCCCCC=CCCC[C@@](C)(C(=O)N[C@@H](C)C(=O)N[C@H](C(=O)N[C@@H](C)C(=O)N[C@H](C)C(=O)N[C@H](C)C(N)=O)C(C)C)NC(=O)[C@H](CC(C)C)NC(=O)[C@H](CCC(N)=O)NC(=O)[C@H](CO)NC(=O)[C@H](Cc2c[nH]c3ccccc23)NC(=O)[C@H](Cc2ccc(O)cc2)NC(=O)[C@H](C(C)C)NC1=O)[C@@H](C)O (single isomer, unassigned) [compound 106]		
10 to 100	< 10	10 to 100	< 10	CCCC[C@H](NC(=O)[C@H](CCC(N)=O)NC(=O)[C@H](Cc1c[nH]cn1)NC(=O)[C@]1(C)CCCC=CCCCCCC[C@@](C)(NC(=O)[C@H](Cc2ccccc2)NC(=O)[C@@H](NC(=O)[C@H](CC(C)C)NC(C)=O)[C@@H](C)O)C(=O)N[C@@H](C)C(=O)N[C@@H](Cc2ccc(O)cc2)C(=O)N[C@@H](Cc2c[nH]c3ccccc23)C(=O)N[C@@H](C)C(=O)N[C@@H](CCC(N)=O)C(=O)N[C@@H](CC(C)C)C(=O)N1)C(=O)N[C@@H](C(N)=O)C(C)C (single isomer, unassigned) [compound 45]		
				CCCC[C@H](NC(=O)[C@]1(C)CCCC=CCCC[C@]2(C)NC(=O)[C@H](C)NC(=O)[C@H](Cc3c[nH]c4ccccc34)NC(=O)[C@H](Cc3ccc(O)cc3)NC(=O)[C@H](C)NC(=O)[C@](C)(NC(=O)[C@H](Cc3ccccc3)NC(=O)[C@@H](NC(=O)[C@H](CC(C)C)NC(C)=O)[C@@H](C)O)CCCCCCC=CCCC[C@](C)(NC(=O)[C@H](CC(C)C)NC2=O)C(=O)N[C@@H](CO)C(=O)N1)C(N)=O [compound 12]	15000 to 30000	
				CC(=O)N[C@@H](CC(C)C)C(=O)N[C@H](C(=O)N[C@@H](Cc1ccccc1)C(=O)N[C@]1(C)CCCCCCC=CCCC[C@]2(C)NC(=O)[C@H](CC(C)C)NC(=O)[C@](C)(CCCC=CCCC[C@@](C)(C(=O)N[C@@H](C)C(N)=O)NC(=O)[C@H](CO)NC2=O)NC(=O)[C@H](C)NC(=O)[C@H](Cc2c[nH]c3ccccc23)NC(=O)[C@H](Cc2ccc(O)cc2)NC(=O)[C@H](C)NC1=O)[C@@H](C)O [compound 13]	5000 to 15000	
100 to 1000	10 to 100	100 to 1000	< 10	CC(=O)N[C@@H](Cc1c[nH]c2ccccc12)C(=O)N[C@H](C(=O)N[C@@H](Cc1ccccc1)C(=O)N[C@]1(C)CCCCCCC=CCCC[C@@](C)(C(=O)N[C@@H](C)C(=O)N[C@H](C(=O)N[C@@H](C)C(=O)N[C@H](C)C(N)=O)C(C)C)NC(=O)[C@H](CC(C)C)NC(=O)[C@H](CCC(N)=O)NC(=O)[C@H](CO)NC(=O)[C@H](Cc2c[nH]c3ccccc23)NC(=O)[C@H](Cc2ccc(O)cc2)NC(=O)[C@H](Cc2ccccc2)NC1=O)[C@@H](C)O (single isomer, unassigned) [compound 100]		
100 to 1000	10 to 100	10 to 100	< 10	CC(=O)N[C@@H](CC(C)C)C(=O)N[C@H](C(=O)N[C@@H](Cc1ccccc1)C(=O)N[C@]1(C)CCCCCCC=CCCC[C@@](C)(C(=O)N[C@@H](CO)C(=O)N[C@@H](C)C(=O)N[C@@H](C)C(N)=O)NC(=O)[C@H](CC(C)C)NC(=O)[C@H](CCC(N)=O)NC(=O)[C@H](C)NC(=O)[C@H](Cc2c[nH]c3ccccc23)NC(=O)[C@H](Cc2ccc(O)cc2)NC(=O)[C@H](C)NC1=O)[C@@H](C)O [compound 11]		< 5000
100 to 1000	10 to 100	100 to 1000	10 to 100	CC[C@H](C)[C@H](NC(=O)[C@H](C)NC(=O)[C@H](C)NC(=O)[C@]1(C)CCCC=CCCCCCC[C@@](C)(NC(=O)[C@H](Cc2ccccc2)NC(=O)[C@@H](NC(=O)[C@H](CC(C)C)NC(C)=O)[C@@H](C)O)C(=O)N[C@@H](C)C(=O)N[C@@H](Cc2ccc(O)cc2)C(=O)N[C@@H](Cc2c[nH]c3ccccc23)C(=O)N[C@@H](C)C(=O)N[C@@H](CCC(N)=O)C(=O)N[C@@H](CC(C)C)C(=O)N1)C(=O)N[C@H](CC(C)C)C(N)=O (single isomer, unassigned) [compound 82]		
				CCCC[C@H](NC(=O)[C@H](C)NC(=O)[C@H](CO)NC(=O)[C@]1(C)CCCC=CCCCCCC[C@@](C)(NC(=O)[C@H](Cc2ccccc2)NC(=O)[C@@H](NC(=O)[C@H](CC(C)C)NC(C)=O)[C@@H](C)O)C(=O)N[C@@H](CCC(=O)O)C(=O)N[C@@H](Cc2ccc(C(=O)O)cc2)C(=O)N[C@@H](Cc2c[nH]c3cc(Cl)ccc23)C(=O)N[C@@H](C)C(=O)N[C@@H](CCC(N)=O)C(=O)N[C@@H](CC2CCC2)C(=O)N1)C(=O)N[C@@H](C)C(N)=O (single isomer, unassigned) [compound 333]	15000 to 30000	
100 to 1000	10 to 100	100 to 1000	< 10	CC(=O)N[C@@H](Cc1c[nH]c2ccccc12)C(=O)N[C@H](C(=O)N[C@@H](Cc1ccccc1)C(=O)N[C@]1(C)CCCCCCC=CCCC[C@@](C)(C(=O)N[C@@H](C)C(=O)N[C@H](C(=O)N[C@@H](C)C(N)=O)C(C)C)NC(=O)[C@H](CC(C)C)NC(=O)[C@H](CCC(N)=O)NC(=O)[C@H](CO)NC(=O)[C@H](Cc2c[nH]c3ccccc23)NC(=O)[C@H](Cc2ccc(O)cc2)NC(=O)[C@H](C(C)C)NC1=O)[C@@H](C)O (single isomer, unassigned) [compound 102]		
				CC[C@H](C)[C@H](NC(=O)[C@H](C)NC(=O)[C@H](C)NC(=O)[C@]1(C)CCCCCCC=CCCC[C@@](C)(NC(=O)[C@H](Cc2ccccc2)NC(=O)[C@@H](NC(=O)[C@H](CC(C)C)NC(C)=O)[C@@H](C)O)C(=O)N[C@@H](C)C(=O)N[C@@H](Cc2ccc(O)cc2)C(=O)N[C@@H](Cc2c[nH]c3ccccc23)C(=O)N[C@@H](C)C(=O)N[C@@H](CCC(N)=O)C(=O)N[C@@H](CC(C)C)C(=O)N1)C(=O)N[C@H](C)C(N)=O [compound 234]	< 5000	
				CC(=O)N[C@@H](CC(C)C)C(=O)N[C@H](C(=O)N[C@@H](Cc1ccccc1)C(=O)N[C@]1(C)CCCCCCC#CCCC[C@@](C)(C(=O)N[C@@H](C)C(=O)N[C@@H](C)C(=O)N[C@@H](C)C(=O)N[C@@H](C)C(=O)N[C@@H](C)C(=O)N[C@H](C)C(N)=O)NC(=O)[C@H](CC(C)C)NC(=O)[C@H](CCC(N)=O)NC(=O)[C@H](C)NC(=O)[C@H](Cc2c[nH]c3ccccc23)NC(=O)[C@H](Cc2ccc(O)cc2)NC(=O)[C@H](C)NC1=O)[C@@H](C)O [compound 665]	< 5000	
100 to 1000	10 to 100	10 to 100	< 10	CC(=O)N[C@@H](Cc1c[nH]c2ccccc12)C(=O)N[C@H](C(=O)N[C@@H](Cc1ccccc1)C(=O)N[C@]1(C)CCCCCCC=CCCC[C@@](C)(C(=O)N[C@@H](C)C(=O)N[C@H](C(=O)N[C@@H](C)C(=O)N[C@H](C)C(N)=O)C(C)C)NC(=O)[C@H](CC(C)C)NC(=O)[C@H](CCC(N)=O)NC(=O)[C@H](CO)NC(=O)[C@H](Cc2c[nH]c3ccccc23)NC(=O)[C@H](Cc2ccc(O)cc2)NC(=O)[C@H](Cc2ccccc2)NC1=O)[C@@H](C)O (single isomer, unassigned) [compound 101]		

Source: US8927500B2, “Peptidomimetic macrocycles” (Aileron Therapeutics, Inc., priority 2012, dated 2015)
